Earlier results on three substances are cited in patent US20180264094A1, “PERSONALISED IMMUNOGENIC PEPTIDE IDENTIFICATION PLATFORM” (priority 2017, published 2018).

Read-outs that look alike come from different tables or passages of the source.

For series [1] the following is noted: in vivo; cited from earlier work.
Series [2] deals with T cell responses. The note with it: percentage of study subjects with positive T cell responses measured in the clinical trials, cited from earlier work.

For Cetuximab, the ADA-related adverse event result in series [1] is “IgE, anaphlyaxis”.

Turning to “RMFPNAPYL (additional peptide 12; additional peptide 13) [9 mer peptide vaccine, source antigen WT-1]”, the “Response rate (Clinical Trials)” value was 100% in series [2] and 81% in series [2] (listed as RMFPNAPYL (HLA- A*0201)).

In the case of rIFN-beta, in series [1], the ADA-related adverse event entry is recorded as “anaphylaxis”.
